This is an account of results in patent publication US20050164903A1, “Complexed surfactant system” (priority 2001, published 2005).

Data set [1] can be described thus: Phase stability (appearance) of sample solutions. As to conditions: for Phase stability (appearance of sample solution): 1% aqueous solution.
Data set [2] can be described thus: Surface tension and cmc, Kruss tensiometer K12. The format is physicochemical. The procedure:
Samples of which surface tensions were to be measured were prepared by mixing SLS and a cationic compound in a mole ratio of 1:1, wherein deionized water was used as water, and a container for measurement was immersed in a cleaning solution for more than 3 hours, washed with water and acetone, dried in an oven, and then used.
A ring method was used, and after measuring 5 times, a mean value was taken. Solutions of 1%, 0.1%, 0.01%, and 0.001% by weight ratio of each of the cationic compounds were prepared to use for the tests.

The nature of data set [3]: Foaming property (initial foamability and foam stability), semi-micro TK method. Particulars: 1% solution. From the text:
As samples for measuring initial foamability and foam stability, samples prepared under the same conditions as those used for measuring Krafft point were used (Table 14). […] The semi-micro TK method was used for measurement, and mean values were taken after measuring three times.
The tests were repeated three times and a mean value was taken.
Experiments were repeated three times, and a mean value was taken. For the experiment, a 1% aqueous solution was used.

Entries after “also recorded” stand apart in the source; their conditions may differ.

As to “1,6-[2-(N,N-butylmethylamino)ethanol]hexane [Synthesis Example 16]”, in data set [1], the “Phase stability (appearance of sample solution)” value (“Phase stability” for short) is given as “transparent”. Besides, the Surface tension came out at 61.98 mN/m in data set [2] (concentration 0.01%), 51.95 mN/m in data set [2] (concentration 0.1%) and 37.45 mN/m in data set [2] (concentration 1%). The “Foaming property, result in words” value in data set [3] was “did not produced foam; also recorded: No foaming”.

Consider “1,6-[2-(N N-dodecylmethylamino)ethanol]hexane [Synthesis Example 18]”, for which the “Phase stability” value in data set [1] was “cloudiness”. In addition, the “Concentration at which the solution became transparent” value in data set [1] (cationic compound in water) is 0.01 wt %. Further, the Surface tension is recorded as 47.44 mN/m in data set [2] (concentration 0.001%), 30.85 mN/m in data set [2] (concentration 0.01%), 30.70 mN/m in data set [2] (concentration 0.1%) and 30.30 mN/m in data set [2] (concentration 1%). Moreover, the “Foaming property, initial foamability, 0 min.” value in data set [3] (0 min.) turned out to be 213 mL. For the same substance, the “Foaming property, 1 min.” value in data set [3] (1 min.) was 203 mL. Further, in data set [3] (2 min.), the “Foaming property, 2 min.” value was determined as 190 mL. Moreover, the “Foaming property, 3 min.” value in data set [3] (3 min.) worked out at 128 mL. In data set [3] (4 min.), the “Foaming property, 4 min.” value was determined as 120 mL. In addition, the “Foaming property, foam stability after 5 min.” value in data set [3] (5 min.) amounted to 105 mL.

Consider “1,6-[2-(N,N-ethylmethylamino)ethanol]hexane [Synthesis Example 15]”, for which the “Phase stability” value in data set [1] is recorded as “transparent”. The Surface tension in data set [2] (concentration 0.01%) was 71.53 mN/m; in data set [2] (concentration 0.1%), 68.63 mN/m; in data set [2] (concentration 1%), 61.35 mN/m. Moreover, in data set [3], the “Foaming property, result in words” value is given as “No foaming”.
